Test results: publication PMC8365601, “Terphenyl-Based Small-Molecule Inhibitors of Programmed Cell Death-1/Programmed Death-Ligand 1 Protein–Protein Interaction” (Journal of Medicinal Chemistry, 2021)

Target: PD-1/PD-L1 complex (Homo sapiens, UniProt Q9NZQ7)
Experiment: HTRF assay of PD-1/PD-L1 complex dissociation (CisBio);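 also: human PD-L1 at 5 nM with human PD-1 at 50 nM, TR-FRET signal read after 2 h at room temperature, background removed via negative control and scaled to positive control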
Settings: 2 h, read-out: % of the undissociated complex in HTRF

Cc1c(-c2ccc(CO)cc2)cccc1-c1ccc2c(c1)OCCO2 [4a, (3′-(Benzo-1,4-dioxan-6-yl)-2′-methyl-[1,1′-biphenyl]-4-yl)methanol]
remaining activity at 5 µM: 42%
